Experimental data from patent US6500222B2, “Diureides and their use” (priority 1999, dated 2002).

Test system: mustard seedlings (Sinapis alba, 'Maxi')
Experiment: Mustard seedling test on plant tolerance, growth and yield

Measured: Vitality (%) 100% optimal growth 0% no growth

bis(N′-potassium sulfamate)succinic diureide
50%: N fertilization 100 mg/container, DAT 13 | N fertilization 200 mg/container, DAT 13 | N fertilization 400 mg/container, DAT 13
100%: N fertilization 100 mg/container, DAT 9 | N fertilization 200 mg/container, DAT 9 | N fertilization 400 mg/container, DAT 9
